Laboratory results from PubChem BioAssay AID602250 (The Scripps Research Institute Molecular Screening Center, 2012).
The entries are a selection whose mix differs from that of the whole data set. Calls of active or inactive are those of the source.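 The calls were made as follows: active = inhibition above a per-plate cutoff, the plate's mean sample inhibition plus 3 SD (cut at about 24% in these data); inactive = the rest.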

Assay: calcium signal blockers in parental CHO-K1 cells – cell-based, Fluo-8 calcium fluorescence, full deck, 1536-well, counter-screen for M1 antagonist project, primary screen (AID 602250);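 also: 0% = DMSO plus EC80 ATP and 100% = DMSO alone without ATP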
Conditions: ATP-induced calcium, Fluo-8 fluorescence, at 3 µM, active compounds read high

Structure (SMILES)	inhibition
O=P1(Nc2nc3ccc(Cl)cc3s2)COc2ccccc2O1 (stereo not drawn)	inactive: -11.9%
CCOC(=O)c1ccc(NC(=O)C(C)(CCl)SC)cc1 (stereo not drawn)	inactive: -13.2%
O=C(OC1CN2CCC1CC2)C12CC3CC(CC(C3)C1)C2 (stereo not drawn)	inactive: -8.38%
